Assay results published in BindingDB's records for doi:10.1111/cbdd.12243 (Shandong Institute of Pharmaceutical Industry, 2014).

Protein sequences, listed by entry. Tags and fused reporters are not part of them.
UniProt Q504U8, whole entry: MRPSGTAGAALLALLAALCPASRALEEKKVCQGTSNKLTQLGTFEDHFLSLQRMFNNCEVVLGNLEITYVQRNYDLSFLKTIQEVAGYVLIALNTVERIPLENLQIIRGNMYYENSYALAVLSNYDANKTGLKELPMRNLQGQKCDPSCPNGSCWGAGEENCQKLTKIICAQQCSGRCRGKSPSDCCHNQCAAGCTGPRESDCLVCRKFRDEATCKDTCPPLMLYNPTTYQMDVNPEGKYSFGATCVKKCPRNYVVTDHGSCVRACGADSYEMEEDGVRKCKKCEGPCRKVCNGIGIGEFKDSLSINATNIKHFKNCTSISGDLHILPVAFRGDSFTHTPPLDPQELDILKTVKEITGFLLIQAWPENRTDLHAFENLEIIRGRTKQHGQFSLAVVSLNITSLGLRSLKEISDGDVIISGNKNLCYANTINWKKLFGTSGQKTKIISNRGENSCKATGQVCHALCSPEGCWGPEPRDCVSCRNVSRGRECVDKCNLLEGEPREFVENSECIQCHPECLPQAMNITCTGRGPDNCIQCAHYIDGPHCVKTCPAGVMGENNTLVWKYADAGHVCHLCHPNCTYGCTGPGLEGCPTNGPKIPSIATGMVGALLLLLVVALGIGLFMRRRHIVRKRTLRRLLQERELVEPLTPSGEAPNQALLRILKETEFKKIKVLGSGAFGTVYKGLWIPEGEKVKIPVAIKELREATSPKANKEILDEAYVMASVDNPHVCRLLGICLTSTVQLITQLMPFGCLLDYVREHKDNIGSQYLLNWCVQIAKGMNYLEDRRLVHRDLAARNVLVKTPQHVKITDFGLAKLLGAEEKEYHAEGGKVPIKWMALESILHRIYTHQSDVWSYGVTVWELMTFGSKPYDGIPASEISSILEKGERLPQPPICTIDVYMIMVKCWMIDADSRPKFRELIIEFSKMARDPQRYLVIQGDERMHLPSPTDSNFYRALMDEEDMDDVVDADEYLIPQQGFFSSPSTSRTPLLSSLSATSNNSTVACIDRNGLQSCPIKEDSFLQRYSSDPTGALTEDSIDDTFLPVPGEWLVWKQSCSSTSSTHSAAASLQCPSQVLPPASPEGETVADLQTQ

Target: Receptor protein-tyrosine kinase (Homo sapiens, UniProt Q504U8)
Assay: Z-LYTE biochemical assay
Conditions: 25 °C
Description: The reaction was stopped by the addition of 5 µL stop reagent.

IC50: 5.95 µM
SMILES: Cc1ccc(Nc2nccc(N(C)c3ccc4c(C)n(C)nc4c3)n2)cc1S(N)(=O)=O [GW-786034]
